Drawing on US7960427B2, “5-hydroxyindole-3-carboxylate derivatives and uses thereof” (priority 2004, dated 2011), this text covers SI and TC50 for one compound.

For series [1], the system named is influenza A virus, strain A/jifang/90-15. In kind it is cell-based.
Series [2] relates to Madin-Darby canine kidney (MDCK) cells.

For the compound `NC(=O)c1ncn([C@@H]2O[C@H](CO)[C@@H](O)[C@H]2O)n1` [Ribovirin, reference compound], the SI in series [1] is reported as more than 29.57. This compound also gave a TC50 in series [2] of more than 1000 µg/mL.
